Experimental data taken from article PMC7190724, “Improved GPCR ligands from nanobody tethering” (Nature Communications, 2020).

The chains behind the UniProt entries cited, without tags or fusion partners. Residues count along the entry.
UniProt Q03431, 27-593 limits assumed: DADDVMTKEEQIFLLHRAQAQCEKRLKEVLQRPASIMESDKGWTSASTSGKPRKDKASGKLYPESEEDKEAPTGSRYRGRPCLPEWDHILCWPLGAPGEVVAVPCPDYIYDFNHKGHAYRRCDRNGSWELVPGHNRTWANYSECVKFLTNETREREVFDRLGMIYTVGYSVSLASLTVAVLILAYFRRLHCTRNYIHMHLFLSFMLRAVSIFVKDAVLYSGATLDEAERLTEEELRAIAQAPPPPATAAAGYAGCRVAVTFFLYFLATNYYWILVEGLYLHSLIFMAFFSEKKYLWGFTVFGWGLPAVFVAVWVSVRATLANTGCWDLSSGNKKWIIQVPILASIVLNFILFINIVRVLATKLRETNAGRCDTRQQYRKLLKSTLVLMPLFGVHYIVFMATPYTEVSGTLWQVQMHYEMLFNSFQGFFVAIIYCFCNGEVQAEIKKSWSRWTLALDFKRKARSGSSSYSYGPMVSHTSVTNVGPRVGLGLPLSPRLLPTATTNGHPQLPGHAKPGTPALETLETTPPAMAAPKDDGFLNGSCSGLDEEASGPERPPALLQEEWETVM

Biological target: PTHR1GFP (Homo sapiens, UniProt Q03431)
Experiment: cAMP response (GloSensor luminescence), HEK293 stably expressing PTHR1GFP (GPG10)
Assay type: cell-based
Conditions: peak GloSensor luminescence; mean ± SD, ≥3 independent experiments
Description: These assays were performed as previously described. Briefly, HEK-293-derived cell lines that stably express the Glosensor cAMP reporter (Promega Corp.)[30] and PTHR1, a PTHR1 variant, or PTHR2 were seeded into white sided 96-well plates (50,000 cells/well) and grown to confluency. Confluent monolayers of cells were pre-incubated with CO2 independent medium containing D-luciferin (0.5 mM) at 37 °C until a stable baseline level of luminescence was established (20 min). Varying concentrations of ligands were then added, and the time course of luminescence response was recorded using BioTek plate reader. The maximal luminescence response (observed 12–16 min after ligand addition) was used to construct dose-response data sets (Table 1, Supplementary Fig. 6).
Data were processed using Microsoft Excel and GraphPad Prism 6. Data from cAMP dose–response assays were analyzed using a sigmoidal dose–response model with variable slope. Data sets were statistically compared by using Student’s t test (two-tailed) assuming unequal variances for the two sets.
Supplementary Figure 1. […]
GFP variant known as pHluorin2 engrafted into the receptor(ref. 19, main text). c) HEK293 cells stably expressing PTHR1-GFP were treated with varied doses of the indicated peptides or conjugates and activation was assessed by measuring luminescence from a cAMP-activated luciferase variant. […]

CC[C@H](C)[C@H](NC(=O)[C@H](CCC(=O)O)NC(=O)C(C)(C)NC(=O)[C@@H](NC(=O)[C@H](C)N)C(C)C)C(=O)N[C@@H](CCC(N)=O)C(=O)N[C@@H](CC(C)C)C(=O)N[C@@H](CCSC)C(=O)N[C@@H](Cc1c[nH]cn1)C(=O)N[C@@H](CS)C(N)=O
EC50, cAMP induction: Inactive at 10,000 nM
